Experiments:
[1] = Short-term stability in spiked pooled human plasma (bench-top, 4 °C, 56 °C)
[2] = Autosampler stability of ready for injection samples; type: physicochemical, human
[3] = Long-term stability in spiked pooled human plasma; conditions: validation standard 2xLLOV

COc1cc2nccc(Oc3ccc(NC(=O)C4(C(=O)Nc5ccc(F)cc5)CC4)cc3)c2cc1OC [Cabozantinib]
Short-time stability (24h, RT, without daylight) Accuracy [%] ([1]; validation standard LLOV): 90.7%
Short-time stability (24h, RT, without daylight) Accuracy [%] ([1]; validation standard MOV): 108.0%
Short-time stability (24h, RT, with daylight) Accuracy [%] ([1]; validation standard ULOV): 100.6%
Short-time stability (24h, RT, without daylight) Accuracy [%] ([1]; validation standard ULOV): 99.9%
Autosampler (24h, 4°C) Accuracy [%] ([2]; validation standard 2xLLOV): 100.8%
Autosampler (72h, 4°C) Accuracy [%] ([2]; validation standard ULOV): 101.3%
Long-term stability, 2 month, -20°C Accuracy [%] [3]: 100.6%
